Experimental data published in PubChem BioAssay AID1259249 (Broad Institute, 2017).
Only a part is listed here, and it is no random draw. Calls of active or inactive are those of the source.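 How the source made its calls: active means mean growth activity at or below -80% and every replicate also at or below -80%; inconclusive means mean at or below -80% but some replicate above -80%; inactive means mean growth activity above -80%.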

Experiment: blockers of Clostridium difficile growth – HTS, primary screen (AID 1259249);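 further: 0% = DMSO wells and -100% = levofloxacin 16 µg/mL wells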
Conditions: Clostridium difficile clinical isolate growth, OD600, 24 h; hits give low values; screened at 16 µg/mL (by protocol)
For `COc1ccc(CN2/C(=N\P(=O)(Oc3ccccc3)Oc3ccccc3)Cc3ccccc3C2C2CC2)cc1` (stereo unspecified), the growth activity, negative = inhibition was inactive: 9.29%.
